Experimental findings from publication PMC8704707 (Pharmaceuticals, 2021) are described below.

The chains behind the UniProt entries cited, without tags or fusion partners. Residues count along the entry.
UniProt O42275, 24-633 limits assumed: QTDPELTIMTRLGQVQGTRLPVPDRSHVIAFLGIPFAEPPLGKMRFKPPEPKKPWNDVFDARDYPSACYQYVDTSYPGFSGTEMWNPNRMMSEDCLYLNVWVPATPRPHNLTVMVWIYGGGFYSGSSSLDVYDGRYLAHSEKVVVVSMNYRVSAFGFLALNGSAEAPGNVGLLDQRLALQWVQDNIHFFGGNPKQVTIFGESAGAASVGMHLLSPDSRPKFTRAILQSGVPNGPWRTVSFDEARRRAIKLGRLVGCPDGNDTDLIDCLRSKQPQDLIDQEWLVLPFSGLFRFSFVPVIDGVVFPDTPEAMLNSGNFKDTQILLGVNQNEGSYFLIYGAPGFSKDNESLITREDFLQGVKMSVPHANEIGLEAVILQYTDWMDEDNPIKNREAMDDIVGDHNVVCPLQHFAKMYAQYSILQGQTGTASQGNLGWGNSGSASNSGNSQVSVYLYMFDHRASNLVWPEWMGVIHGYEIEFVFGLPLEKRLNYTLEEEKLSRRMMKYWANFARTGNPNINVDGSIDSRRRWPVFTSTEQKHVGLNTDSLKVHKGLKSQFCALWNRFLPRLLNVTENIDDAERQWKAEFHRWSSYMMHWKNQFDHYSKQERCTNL
UniProt P81908, whole entry: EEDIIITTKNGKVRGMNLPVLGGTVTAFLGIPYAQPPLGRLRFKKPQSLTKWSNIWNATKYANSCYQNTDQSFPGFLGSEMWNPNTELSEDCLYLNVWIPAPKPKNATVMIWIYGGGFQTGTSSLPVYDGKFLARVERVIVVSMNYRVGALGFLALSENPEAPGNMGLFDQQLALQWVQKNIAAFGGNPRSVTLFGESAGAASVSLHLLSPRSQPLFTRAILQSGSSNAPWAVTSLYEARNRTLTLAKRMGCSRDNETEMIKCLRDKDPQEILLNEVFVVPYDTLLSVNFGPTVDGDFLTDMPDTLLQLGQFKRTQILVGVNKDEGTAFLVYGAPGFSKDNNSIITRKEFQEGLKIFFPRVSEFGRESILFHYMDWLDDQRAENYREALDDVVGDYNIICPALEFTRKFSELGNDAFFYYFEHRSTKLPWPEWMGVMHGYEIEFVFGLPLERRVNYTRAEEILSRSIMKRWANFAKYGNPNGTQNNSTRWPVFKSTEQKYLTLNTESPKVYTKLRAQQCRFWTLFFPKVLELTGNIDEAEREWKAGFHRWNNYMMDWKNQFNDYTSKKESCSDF

For data set [1], the target named is AChE from electric eel (EeAChE) (Electrophorus electricus, UniProt O42275). In words: Inhibition of acetylcholinesterase, Ellman's method. The data set is classed as biochemical.
Data set [2] has as its target BuChE from equine serum (EqBuChE) (Equus caballus, UniProt P81908). Nature of the data set: Inhibition of butyrylcholinesterase, Ellman's method. Conditions: read-out: IC50 BuChE; mean ± SD, n = three independent experiments; BTCh 40 µM. The data set is classed as biochemical.
The next data set relates to HepG2 cells. In words: Cytotoxicity, CellTiter 96 (MTS) assay. To be noted: range of tested concentrations up to 500 µM.

Only a part of the results on these compounds is given; other tests are left out.

As to `N=C(NN)N[N+](=O)[O-]`, the Selectivity AChE/BuChE in data set [1] (ratio of IC50 for AChE/IC50 for BuChE, values above 1 indicate stronger inhibition of BuChE) is less than 0.09. For the same compound, the IC50 is 46.9 µM in data set [1] (read-out: IC50 AChE, mean ± SD, n = three independent experiments, ATCh 40 µM) and more than 500 µM in data set [2]. In addition, the “Cytotoxicity in HepG2 in words” value in the data set with HepG2 cells is “no significant cytotoxicity”.
